BindingDB's records for doi:10.7270/Q24X565S (The Scripps Research Institute Molecular Screening Center, 2007)

Molecular target: cAMP-dependent protein kinase catalytic subunit alpha (Homo sapiens, UniProt P17612)
Assay: PKA catalytic subunit inhibitors, dose response, biochemical, Kinase-Glo luminescence, Kemptide substrate (AID 548)

pIC50: 6.17
SMILES: O=C(Nc1nc(-c2ccncc2)cs1)C1COc2ccccc2O1 (stereo unspecified)

pIC50: −log10 of the molar value.
